Tested on: K562 cells
Experiment: cells
Conditions: Homo sapiens, K562, 48 h, read-out: mean pIA50, reduction in OD570-OD600 (converted)

CC(C)Cn1c(=O)n(C)c(=O)c2c(SCCCO)c(Cc3cccc4ccccc34)sc21 [Ligand 1, 5-[(3-hydroxypropyl)thio]-3-methyl-1-(2-methylpropyl)-6-(1-napthalenylmethyl)thieno[2,3-d]pyrimidine-2,4(1H,3H)-dione]
IC50: 2 nM

From patent publication US20040072746A1, “Inhibitors of monocarboxylate transport” (priority 2001, published 2004)
